# AlphaSeq binding of Ab-14 light chain variants to a spike HR2 peptide

Target: peptide PDVDLGDISGINAS, taken from heptad repeat 2 (HR2) of SARS-CoV-2 spike.

The variants keep the heavy chain, the linker and the frameworks of Ab-14 (scFv order VH, a 15-residue (Gly4Ser)3 linker, VL).
VH: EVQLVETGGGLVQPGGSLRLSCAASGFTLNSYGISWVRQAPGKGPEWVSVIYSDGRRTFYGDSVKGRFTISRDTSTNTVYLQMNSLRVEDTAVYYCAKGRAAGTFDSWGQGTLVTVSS
VL: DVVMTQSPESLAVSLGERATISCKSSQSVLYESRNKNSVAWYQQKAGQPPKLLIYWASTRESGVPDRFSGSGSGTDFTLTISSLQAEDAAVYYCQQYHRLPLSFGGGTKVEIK

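The parent was found by panning a naive human phage display library on the peptide. Designed CDR sequences, proposed from the first random library and measured here. Their group label is 14L_GP_Gen (GP: Gaussian process model; Gen: genetic algorithm; a sequence that several methods proposed may carry one label only). In AlphaSeq, yeast of one mating type display the scFv and yeast of the other type display the target. Mating (16 h, 30 °C) was followed by selection of diploids and sequencing of their barcodes. Each replicate has its own calibration line, from reference interactions of the BCL2 family. Each pool was mated in six replicate cultures.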

Each variant is given by its three light chain CDRs, as the data file delimits them; those of the parent are KSSQSVLYESRNKNSVA, WASTRES, QQYHRLPLS. Affinities are written as log10 Kd with Kd in nM; a lower number is a better binder. Averages over replicates are reported, and they cover detected replicates only. A pair that was not seen in that replicate is written "n.d."; this usually means weak binding, but a binder can also be missed. Background: pairings of all light chain designs with three empty control strains gave a value in 4% of cases (median 2.64, 5th percentile 1.59). Values in that range, when seen in few replicates, are hard to tell from nonspecific mating. The control count says in how many pairings with the empty strains this scFv gave a signal, with their mean in brackets.

CDR-L1 | CDR-L2 | CDR-L3 | log10 Kd (nM) by replicate | mean, log10 nM | empty controls
KLSQSVPYEQRNKNSVA | EASTRES | QQYHRLPLS | 0.45 0.01 0.14 -0.14 -0.14 -0.04 | 0.05 | 1 of 18 (2.78)
KVSQSELYESRNKNSVA | EASQRES | QQYHRLPLS | 0.00 -0.30 -0.35 -0.17 -0.26 0.00 | -0.18 | 1 of 18 (2.96)
KVSQSVLYESRNPNSVA | NASTRES | QQYHRLPLS | 0.07 0.01 -0.01 -0.16 -0.15 -0.03 | -0.04 | 2 of 18 (2.90)
KVSQSDLYESRNKNNVA | EASTRES | QQYHRLPLS | 0.79 1.04 0.93 0.63 0.84 1.34 | 0.93 | 1 of 18 (2.64)
KLQQSELYESRMKNSVA | NASQRES | QQYHRLPLS | 0.65 0.49 0.53 0.34 0.58 0.84 | 0.57 | 1 of 18 (2.99)
KVEQSMLYESRNKNSVA | NASQRES | QQYHRLPLS | 0.08 0.10 -0.08 -0.14 -0.19 -0.07 | -0.05 | 1 of 18 (2.71)
KLSQSVLYESRNKNSVA | NASTREV | QQYHRLPLS | -0.09 -0.28 -0.19 -0.27 -0.48 -0.21 | -0.25 | 2 of 18 (3.12)
KLSQSMGYESRNKNSVA | DASTRES | QQYHRLPLS | 0.29 -0.10 -0.21 -0.04 0.02 0.15 | 0.02 | 4 of 18 (2.09)
KVSQSRLYESRNKNSVA | NASTRES | QQYHRLPLS | 1.02 0.86 0.56 0.91 0.54 1.33 | 0.87 | 1 of 18 (3.69)
KLSQSWLYESRNKNSVA | HASTRED | QQYHRLPLS | 0.47 0.52 0.53 0.61 0.54 0.87 | 0.59 | 2 of 18 (3.97)
KFSQSVLYESRNKNSVA | DASTRMS | QQYHRLPLS | -0.13 -0.26 -0.28 -0.46 -0.44 -0.38 | -0.32 | 1 of 18 (2.55)
KLSQSDLYESRNKNNVA | NASTRMS | QQYHRLPLS | 0.88 1.12 n.d. n.d. n.d. 2.43 | 1.48 | 0 of 18
KFSQSMLYESRNKNSVA | DASTRES | QQYHRLPLS | -0.12 -0.21 -0.20 -0.38 -0.44 -0.17 | -0.25 | 2 of 18 (3.57)
KLSQSVLYESRNKNSVA | NASTRED | QQYHRLPLS | -0.21 -0.47 -0.38 -0.53 -0.48 -0.23 | -0.38 | 0 of 18
KLSQSELYESRNFNSVA | NASQRES | QQYHRLPLS | 0.36 0.19 -0.01 0.16 0.08 0.23 | 0.17 | 1 of 18 (2.33)
KLSQSMLYESRVKNSVA | NASQRES | QQYHRLPLS | 0.32 0.21 0.12 -0.01 0.26 0.28 | 0.20 | 2 of 18 (3.84)
KLSQSHLYESRNSNSVA | NASTRES | QQYHRLPLS | 0.09 -0.16 -0.40 -0.44 -0.04 -0.13 | -0.18 | 2 of 18 (2.34)
KISQSVLYESRNKNSVA | NASQRMS | QQYHRLPLS | 0.07 -0.28 -0.25 -0.26 -0.21 -0.26 | -0.20 | 3 of 18 (2.18)
KLSQSVLYESRQKNSVA | NASTRED | QQYHRLPLS | 0.14 -0.12 -0.35 -0.44 -0.20 0.08 | -0.15 | 0 of 18
KLSQSNLYESRNKNNVA | EASTRES | QQYHRLPLS | -0.14 -0.36 -0.62 -0.83 -0.89 -0.62 | -0.58 | 1 of 18 (1.01)
KLMQSELYESRNKNSVA | NASTRES | QQYHRLPLS | -0.26 -0.11 -0.31 0.09 0.01 -0.38 | -0.16 | 2 of 18 (2.55)
KLSFSWLYESRNKNSVA | NASQRES | QQYHRLPLS | 0.20 0.23 0.19 0.28 0.19 0.35 | 0.24 | 2 of 18 (2.61)
KLSQSGLYESRNKNNVA | EASTRES | QQYHRLPLS | 0.07 0.01 0.16 0.02 0.01 0.12 | 0.07 | 0 of 18
KLPQSWLYESRNKNSVA | QASQRES | QQYHRLPLS | 0.00 -0.14 -0.06 -0.28 -0.18 -0.11 | -0.13 | 2 of 18 (3.73)
KFSQSVLYESRNKNNVA | NASTRES | QQYHRLPLS | -0.17 -0.28 -0.11 -0.11 -0.29 -0.10 | -0.17 | 0 of 18
KVSQSCLYESRNKNNVA | EASTRES | QQYHRLPLS | 0.49 0.01 -0.17 -0.09 -0.19 0.05 | 0.02 | 2 of 18 (2.08)
KLEQSEGYESRNKNSVA | NASQRES | QQYHRLPLS | 0.66 0.52 0.22 0.45 0.05 0.38 | 0.38 | 2 of 18 (1.89)
KLPQSWLYESRNKNSVA | GASTRES | QQYHRLPLS | -0.38 -0.65 -0.65 -0.68 -0.65 -0.36 | -0.56 | 0 of 18
KLSQSVLYESRQKNSVA | EASTRES | QQYHRLPLS | 0.17 -0.04 -0.22 -0.30 -0.08 0.02 | -0.07 | 0 of 18
KLPQSQLYESRNKNSVA | NASTRES | QQYHRLPLS | -0.26 -0.33 -0.32 -0.34 -0.31 -0.24 | -0.30 | 2 of 18 (1.89)

For reference, 2 entries of the list once more:

CDR-L1 | CDR-L2 | CDR-L3 | log10 Kd (nM) by replicate | mean, log10 nM | empty controls
KLPQSWLYESRNKNSVA | QASQRES | QQYHRLPLS | 0.00 -0.14 -0.06 -0.28 -0.18 -0.11 | -0.13 | 2 of 18 (3.73)
KLSQSVLYESRNKNSVA | NASTRED | QQYHRLPLS | -0.21 -0.47 -0.38 -0.53 -0.48 -0.23 | -0.38 | 0 of 18

The range of this assay differs from that of the first round, and the authors advise against merging the two. Of ten entries with the parent sequence, four were seen in most replicates (averages 0.34 to 2.37), three in one and three in none, so single entries are noisy. In the paper, a design with two or fewer of six values counts as a poor binder.

Source: Li et al. 2023 (doi:10.1038/s41467-023-39022-2), MIT Lincoln Laboratory and A-Alpha Bio; data file from the FLAb repository.